Values of other authors, collected in PMC2861614.

Biological target: GFP (Aequorea victoria) [GFP: P42212]

Kd: 100 µM
Substance: GFP (from UniProt P42212)
